Data: patent US20240050441A1, “COMBINATION THERAPIES FOR THE TREATMENT OF CANCER” (Erasca, Inc., priority 2020, published 2024)

Tests used:
Test in all cases: Cellular proliferation assay (CellTiter-Glo, day 5)
Assay type in all cases: cell-based
SCC-15 cells = conditions: up to 5 μg/ml of cetuximab alone
Method: (§1) The cell lines used in the study were obtained from ATCC (CAL 27 #CRL-2095, SCC-15 #CRL-1623, SCC-25 #CRL-1628, SCC-4 #CRL-1624 and SCC-9 #CRL-1629). The cell line, CAL 27 was cultured in DMEM (Gib co #). SCC-4, SCC-15, SCC-25, SCC-9 cell lines was cultured in a 1:1 mixture of DMEM and Ham's F12 medium containing 1.2 g/L sodium bicarbonate, 2.5 mM L-glutamine, 15 mM HEPES and 0.5 mM sodium pyruvate supplemented with 400 ng/ml hydrocortisone, 90%; fetal bovine serum, 10% (Hyclone #SH-30071.03) and Penicillin/Streptomycin (Thermo Fisher #15070-063). The cells were maintained at 37° C./5% CO2. Cells were washed in ice cold PBS (Thermo Fisher Scientific #10010-023) and lysed in RIPA Lysis and Extraction Buffer (Thermo Fisher Scientific #89900) supplemented with Halt Phosphatase and Protease Inhibitor (Thermo Fisher Scientific #78445). The membrane was blocked for non-specific proteins by Bovine Serum Albumin BSA (Cell Signaling Tech #9998). Antibodies for immunoblotting were as follows: phospho-p44/42 ERK1/2 (Cell Signaling Tech #4370), ERK2 antibody (Santa Cruz #sc-1647), anti-mouse IgG HRP-linked antibody (Cell Signaling Tech #7076), and anti-rabbit IgG HRP-linked antibody (Cell Signaling Tech #7074).
(§2) […] HPV-negative head and neck squamous cancer cell lines, CAL 27, SCC-4, SCC-9, SCC-15 and SCC-25 were split onto 96 well plates.

SCC-9 cells = conditions: up to 2.5 μg/ml of cetuximab alone
Method: as §1, §2

SCC-25 cells = tested on: SCC-25 cells
Method: as §1
Three HPV-negative head and neck squamous cancer cell lines, CAL 27, SCC-4, SCC-9, SCC-15 and SCC-25 were split onto 96 well plates. […] (FIGS. 2-5).

**Q.** Which “decrease in cell viability” value (SCC-15 cells) does the source give for cetuximab [reference compound] here?
**A.** Its value is “no noticeable decrease in cell viability”.

**Q.** And the “decrease in cell viability” value (SCC-9 cells)?
**A.** The value was “no noticeable decrease in cell viability”.

**Q.** And the “decrease of cell viability (percent CTG activity)” value (SCC-25 cells; cetuximab treatment alone)?
**A.** Its value is “did not decrease the cell viability”.

**Q.** And the “decrease in cell viability” value (SCC-25 cells; up to 5 μg/ml of cetuximab alone)?
**A.** The value was “no noticeable decrease in cell viability”.
